IC50 data for two compounds are collected here from PMC11594133, “Enzyme (α-Glucosidase, α-Amylase, PTP1B & VEGFR-2) Inhibition and Cytotoxicity of Fluorinated Benzenesulfonic Ester Derivatives of the 5-Substituted 2-Hydroxy-3-nitroacetophenones” (International Journal of Molecular Sciences, 2024).

Read-outs that look alike come from different tables or passages of the source.

This assay concerns the target T1, PTP1B (Homo sapiens, UniProt P18031).
T1 sequence (P18031 3-277 limits assumed): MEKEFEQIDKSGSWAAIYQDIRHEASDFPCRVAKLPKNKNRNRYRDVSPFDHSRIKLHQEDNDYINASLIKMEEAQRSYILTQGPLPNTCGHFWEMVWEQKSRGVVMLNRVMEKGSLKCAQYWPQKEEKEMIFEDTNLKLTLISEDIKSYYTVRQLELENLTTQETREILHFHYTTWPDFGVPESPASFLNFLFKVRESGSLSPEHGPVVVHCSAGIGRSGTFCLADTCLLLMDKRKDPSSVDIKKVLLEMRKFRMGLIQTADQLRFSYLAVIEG
In words: In vitro PTP1B inhibitory assay (Fluorogenic PTP1B (Catalytic Domain) Assay).

For orientation: IC50 means the concentration that gives 50% inhibition. On to `CC(=O)c1cc(F)cc([N+](=O)[O-])c1OS(=O)(=O)c1ccccc1F` [Compound 2a, 2-Acetyl-4-fluoro-6-nitrophenyl 2-fluorobenzenesulfonate], for which the IC50 turned out to be 6.3 ± 0.029 µM.

Regarding “sodium vanadate [Na3VO4, reference compound]”, the IC50 (read-out: IC50 (µM ± SD) PTP1B, 1–50 µM, duplicate, 30 min incubation, mean ± SD) was 6.3 ± 0.05 µM.
